Results taken from BindingDB's records for PubMed 10688601 (Virginia Commonwealth University, 2000).

Amino acid sequences for entries named in this document (tags omitted).
UniProt P34972, whole entry: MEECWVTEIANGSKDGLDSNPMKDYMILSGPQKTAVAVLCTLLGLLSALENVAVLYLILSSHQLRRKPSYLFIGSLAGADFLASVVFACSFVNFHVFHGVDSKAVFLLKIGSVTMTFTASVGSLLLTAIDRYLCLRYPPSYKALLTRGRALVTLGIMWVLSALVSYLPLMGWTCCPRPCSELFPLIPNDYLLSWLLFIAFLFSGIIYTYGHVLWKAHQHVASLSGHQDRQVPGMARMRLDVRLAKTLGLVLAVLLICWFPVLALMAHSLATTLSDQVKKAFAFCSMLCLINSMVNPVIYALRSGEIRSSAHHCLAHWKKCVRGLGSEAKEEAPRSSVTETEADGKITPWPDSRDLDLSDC

Columns and labels:
[1] = molecular target: Cannabinoid receptor 2 (Homo sapiens, UniProt P34972)
[2] = molecular target: T1, Cannabinoid receptor 2 (Rattus norvegicus, UniProt Q9QZN9)
T1 sequence (Q9QZN9 whole entry): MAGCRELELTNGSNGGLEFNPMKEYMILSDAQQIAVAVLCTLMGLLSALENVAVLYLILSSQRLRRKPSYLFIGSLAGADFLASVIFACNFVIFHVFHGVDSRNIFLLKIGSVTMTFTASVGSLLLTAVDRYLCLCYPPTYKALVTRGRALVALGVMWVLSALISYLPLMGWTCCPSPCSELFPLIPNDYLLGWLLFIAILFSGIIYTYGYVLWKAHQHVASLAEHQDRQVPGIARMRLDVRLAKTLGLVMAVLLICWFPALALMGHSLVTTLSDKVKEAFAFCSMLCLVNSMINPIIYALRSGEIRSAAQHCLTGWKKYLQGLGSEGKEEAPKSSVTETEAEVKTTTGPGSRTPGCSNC

CCCCC/C=C\C/C=C\C/C=C\C/C=C\CCCC(=O)NCCO [Arachidonoyl ethanolamide]
Ki [1]: 0.306 µM
Ki [2]: > 10 µM
